Source: patent US20050267136A1, “Method of inhibiting dihydrofolate reductase; screening assay for the identification of novel therapeutics and their cellular targets” (McMaster University, priority 2003, published 2005)

Tested on: E. coli MC1061
Assay: Minimum inhibitory concentration determination in LB broth
Format: cell-based
Conditions: Escherichia coli, 16 hr at 37° C., OD600 less than 0.1

Compound: CC1Cc2nc(N)nc(N)c2CC1C (stereo not shown) [Compound 7]
- MIC: 16 µg/mL (≈ 83.2 µM)

In brackets after ≈: the same amount, converted by molar mass.
